From publication PMC3319004 (Science Translational Medicine, 2011)

Tests used:
[1] = system: ALK-dependent NSCLC; details: cited from earlier work
[2] = system: NB1 xenografts with amplified, overexpressed wild-type ALK; assay: In vivo tumor growth inhibition, NB1 xenografts; details: 100mg/kg/day oral gavage for 4 weeks

Structure (SMILES): C[C@@H](Oc1cc(-c2cnn(C3CCNCC3)c2)cnc1N)c1c(Cl)ccc(F)c1Cl [crizotinib]
- safety in phase I study ([1]; humans): safety and tolerability in humans
- tumor response in phase I study ([1]; patients with ALK-dependent NSCLC): tumor shrinkage or stable disease in most patients
- tumor response [2]: complete tumor regression
